# Article PMC4452637, “Identification of positron emission tomography (PET) tracer candidates by prediction of the target-bound fraction in the brain” (EJNMMI Research, 2014)
# Experiments:
# GABA = molecular target: GABA; set-up: method as in ref 33, 74 (Additional file 1); conditions: literature value; 74 (Additional file 1); cited from earlier work
# [1] = Unbound fraction in brain homogenate (fu,brain); Vu,brain calculated from it with pH-partition model; conditions: calculated from reported fu,brain and tracer pKa with pH-partition model (tracers with fu,brain tabulated, footnote h of Table S1)
# [2] = set-up: method as in ref 10 (a number printed in a supplementary file, which may have a reference list of its own: not looked up in the article's list); conditions: unbound fraction in homogenized brain tissue, reported; cited from earlier work
# SERT = assay: PET imaging of specific target binding (BPND, tracer functionality); conditions: in vivo
smiles,measurement,setting,value
CN1C(=O)CN=C(c2ccccc2)c2cc(Cl)ccc21 [[^11C]Diazepam],Kd,GABA,7 nM
[11CH3]NC(=O)c1ccc(Oc2ccc3c(c2)CCN(C2CCC2)CC3)nc1 [[^11C]GSK189254A],"V u,brain",[1],8.5 mL/g brain
CC[11CH2]N1CCO[C@@H]2c3cc(O)ccc3CCC21 (some centres unmarked) [[^11C]PHNO],"fu,brain",[2],0.21
same,"V u,brain",[1],11 mL/g brain
[18F]c1ccc([C@@H]2CCNC[C@H]2COc2ccc3c(c2)OCO3)cc1 [[^18 F]Paroxetine],BP ND,SERT,0.1
